Reference: PubChem BioAssay AID602261 (Sanford-Burnham Center for Chemical Genomics, 2012)
The entries are a selection whose mix differs from that of the whole data set. The source made the active and inactive calls.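 How the source made its calls: active means compounds whose normalised, plate-corrected inhibition of enzyme fluorescence in the single-dose primary screen is 50% or more; inactive means the rest.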

Sequences of proteins named here, by UniProt entry; tags and fusion partners are left off.
UniProt P49327, whole entry, looked up: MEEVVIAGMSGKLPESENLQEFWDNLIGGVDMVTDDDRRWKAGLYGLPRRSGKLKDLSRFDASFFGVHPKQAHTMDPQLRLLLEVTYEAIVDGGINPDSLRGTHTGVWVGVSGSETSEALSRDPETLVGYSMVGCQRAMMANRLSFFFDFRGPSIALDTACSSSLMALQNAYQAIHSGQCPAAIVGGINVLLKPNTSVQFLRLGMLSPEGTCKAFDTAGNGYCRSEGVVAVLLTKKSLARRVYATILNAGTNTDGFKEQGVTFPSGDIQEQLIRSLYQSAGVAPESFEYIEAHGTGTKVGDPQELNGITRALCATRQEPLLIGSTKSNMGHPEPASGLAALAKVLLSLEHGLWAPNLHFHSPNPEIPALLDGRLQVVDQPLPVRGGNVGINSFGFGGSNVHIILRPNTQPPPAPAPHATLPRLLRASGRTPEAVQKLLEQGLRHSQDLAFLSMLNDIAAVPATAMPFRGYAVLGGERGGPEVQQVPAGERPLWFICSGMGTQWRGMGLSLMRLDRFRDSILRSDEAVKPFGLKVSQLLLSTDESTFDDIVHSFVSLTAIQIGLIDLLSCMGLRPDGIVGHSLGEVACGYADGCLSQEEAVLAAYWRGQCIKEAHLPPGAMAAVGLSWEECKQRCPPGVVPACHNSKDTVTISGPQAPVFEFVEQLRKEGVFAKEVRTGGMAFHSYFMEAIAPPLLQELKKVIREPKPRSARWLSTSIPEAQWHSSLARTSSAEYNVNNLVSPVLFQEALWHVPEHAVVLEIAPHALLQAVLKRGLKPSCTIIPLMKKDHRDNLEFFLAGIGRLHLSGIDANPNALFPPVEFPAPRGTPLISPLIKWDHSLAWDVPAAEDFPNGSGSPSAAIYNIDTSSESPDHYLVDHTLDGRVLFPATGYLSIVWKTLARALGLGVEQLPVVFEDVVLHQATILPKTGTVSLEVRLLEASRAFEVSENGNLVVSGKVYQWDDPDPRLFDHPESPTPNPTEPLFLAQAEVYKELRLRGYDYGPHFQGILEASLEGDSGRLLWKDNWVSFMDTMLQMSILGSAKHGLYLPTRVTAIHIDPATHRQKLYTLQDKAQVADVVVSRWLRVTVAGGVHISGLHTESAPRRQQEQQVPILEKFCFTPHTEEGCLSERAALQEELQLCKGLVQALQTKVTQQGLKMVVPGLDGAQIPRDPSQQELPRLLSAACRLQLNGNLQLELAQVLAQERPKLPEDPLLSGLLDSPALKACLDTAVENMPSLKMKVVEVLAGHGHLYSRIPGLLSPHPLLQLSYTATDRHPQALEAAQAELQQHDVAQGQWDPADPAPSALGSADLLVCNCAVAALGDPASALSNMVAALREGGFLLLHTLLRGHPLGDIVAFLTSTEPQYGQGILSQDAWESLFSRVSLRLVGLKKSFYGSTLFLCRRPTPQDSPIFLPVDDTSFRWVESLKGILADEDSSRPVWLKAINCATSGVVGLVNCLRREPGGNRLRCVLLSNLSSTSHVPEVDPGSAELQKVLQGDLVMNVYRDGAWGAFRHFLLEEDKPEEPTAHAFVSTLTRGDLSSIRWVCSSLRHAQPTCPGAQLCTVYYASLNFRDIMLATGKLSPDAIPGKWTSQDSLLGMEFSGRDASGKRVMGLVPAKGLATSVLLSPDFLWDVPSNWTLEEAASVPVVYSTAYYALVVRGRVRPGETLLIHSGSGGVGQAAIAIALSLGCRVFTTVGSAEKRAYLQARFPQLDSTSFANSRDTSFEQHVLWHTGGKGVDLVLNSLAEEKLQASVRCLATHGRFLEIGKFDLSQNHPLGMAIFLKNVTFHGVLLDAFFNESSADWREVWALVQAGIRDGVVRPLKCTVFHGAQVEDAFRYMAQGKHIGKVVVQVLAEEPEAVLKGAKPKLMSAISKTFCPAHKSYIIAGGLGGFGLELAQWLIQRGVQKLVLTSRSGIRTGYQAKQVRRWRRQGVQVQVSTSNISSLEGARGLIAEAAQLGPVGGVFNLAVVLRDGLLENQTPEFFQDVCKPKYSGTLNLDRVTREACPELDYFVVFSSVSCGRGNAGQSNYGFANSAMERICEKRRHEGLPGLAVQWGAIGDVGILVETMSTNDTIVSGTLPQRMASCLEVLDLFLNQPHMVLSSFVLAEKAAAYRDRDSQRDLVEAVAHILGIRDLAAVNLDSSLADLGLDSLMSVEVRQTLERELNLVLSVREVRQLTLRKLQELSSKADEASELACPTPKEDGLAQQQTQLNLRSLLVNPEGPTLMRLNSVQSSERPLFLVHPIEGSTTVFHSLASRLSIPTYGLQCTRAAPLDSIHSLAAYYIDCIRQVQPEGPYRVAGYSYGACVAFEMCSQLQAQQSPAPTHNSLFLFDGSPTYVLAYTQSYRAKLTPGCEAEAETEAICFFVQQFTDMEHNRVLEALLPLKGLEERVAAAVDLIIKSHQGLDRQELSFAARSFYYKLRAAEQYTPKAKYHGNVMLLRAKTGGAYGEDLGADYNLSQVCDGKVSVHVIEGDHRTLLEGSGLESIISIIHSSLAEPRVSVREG

Target: Fatty acid synthase (Homo sapiens) (UniProt P49327)
Assay: inhibition of human FAS-TE enzyme activity – biochemical, fluorescence intensity, uHTS, primary screen (AID 602261);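 further: 0% = DMSO with enzyme and 100% = substrate without enzyme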
Conditions: recombinant FAS-TE, OMFH fluorogenic substrate, fluorescence endpoint; at 15 µM; active compounds read high

| SMILES | inhibition |
| --- | --- |
| CS(=O)(=O)c1ccc(Cl)c(NC(=O)COC(=O)C(O)(c2ccccc2)c2ccccc2)c1 | inactive: 0.7% |
| O=C(OC1CN2CCC1CC2)c1ccc(Cl)cc1 (configuration not stated) | inactive: -4% |
| Cc1cccc(OCC(=O)OC2CN3CCC2CC3)c1 (configuration not stated) | inactive: -3.7% |
| O=[As](O)(c1cccc(O)c1)c1cccc(O)c1 | inactive: -4.3% |
| CCCOP(=S)(Nc1nc(N)cc(=O)[nH]1)OCCC | inactive: -4.7% |
| Nc1cccc2c([As](=O)(O)O)cccc12 | inactive: -22.2% |
| Cc1ccc(NCCc2c([N+](=O)[O-])cc([N+](=O)[O-])cc2[N+](=O)[O-])cc1 | inactive: -95.8% |
| COc1cc(C2NCCC3(OCCO3)C2(C)C)cc(OC)c1OC (configuration not stated) | inactive: -11.1% |
| CCOP(=O)(Nc1cccc2ccccc12)OCC | inactive: -11.6% |
| CS(=O)(=O)c1cc([N+](=O)[O-])c2no[n+]([O-])c2c1 | inactive: 3.2% |
| CCOP1(=S)c2c(C)nn(CCC#N)c2N=C(c2ccccc2F)N1C (configuration not stated) | inactive: 0.1% |
| O=P(Nc1nccs1)(Oc1ccccc1)Oc1ccccc1 | inactive: -1.4% |
| O=P(Nc1nccs1)(c1ccccc1)c1nc2ccccc2s1 (configuration not stated) | inactive: 34.5% |
| O=C(O)COc1ccc([As](=O)(O)O)cc1[N+](=O)[O-] | inactive: -0.8% |
| Nc1ccccc1[As](=O)(O)c1ccccc1 | inactive: -8.2% |
| NC(=O)Nc1ccc([As](=O)(O)O)cc1 | inactive: -7.2% |
| O=[N+]([O-])c1ccc2c(c1)nnn2O | inactive: -6.3% |
| CN(C)C(=O)c1cc([N+](=O)[O-])cc2c1-c1c(cc([N+](=O)[O-])cc1[N+](=O)[O-])C2=O | inactive: -32.9% |
| CN(C(=O)Cc1ccc(Cl)c(Cl)c1)[C@H]1CC[C@@]2(CCCO2)C[C@@H]1N1CCCC1 | inactive: -4% |
| N#CCCN(C(=O)COC(=O)C(O)(c1ccccc1)c1ccccc1)c1ccc(F)cc1 | inactive: 2.2% |
| CN(C(=O)Cc1ccccc1)[C@@H]1CC[C@]2(CCCO2)C[C@H]1N1CCCC1 | inactive: 1.4% |
| CCOP1(=S)c2c(C)nn(CCC#N)c2N=C(c2ccc(F)cc2)N1C (configuration not stated) | inactive: -3.8% |
| Cc1nn(-c2ccccc2)c2c1P(=O)(N1CCOCC1)N(C)C(c1ccccc1)=N2 (configuration not stated) | inactive: -6% |
| Cc1ccc(C(=O)OC2CN3CCC2CC3)cc1 (configuration not stated) | inactive: -7.1% |

| SMILES | inhibition |
| --- | --- |
| CC1CCC(C(C)C)C(OP(=O)(Nc2ccccn2)c2ccccc2)C1 (configuration not stated) | inactive: 7.3% |
| O=C(/C=C/c1ccccc1)OC1CN2CCC1CC2 (configuration not stated) | inactive: 0% |
| CCCC1OP(=O)(Nc2ccccc2)OCC1CC (configuration not stated) | inactive: -4.8% |
| CN(C)C1(CNC(=O)c2ccc(S(C)(=O)=O)cc2)CCCCC1 | inactive: -5.6% |
| O=P1(Nc2ncccn2)COc2ccccc2OC1 | inactive: -7.5% |
| Cc1ccc(S(=O)(=O)N(CCCN)CCCc2c(C)nc(N)[nH]c2=O)cc1 | inactive: -2.7% |
| O=[As](O)(c1cccs1)c1cccs1 | inactive: -3.9% |
| Cc1ccc(OCC(=O)OC2CN3CCC2CC3)cc1 (configuration not stated) | inactive: -6.3% |
| NS(=O)(=O)c1cccc(NC(=O)COC(=O)C(O)(c2ccccc2)c2ccccc2)c1 | inactive: 1.4% |
| O=P1(Nc2ccc(Br)cn2)COc2ccccc2OC1 | inactive: 1.1% |
| Nc1cccc([As](=O)(O)c2ccccc2)c1 | inactive: -2.4% |
| CCOP(=O)(Nc1ccc(C)cn1)OCC | inactive: -3.9% |
| CN(CCCl)Cc1cc(Cl)c(NC2=NCCN2)c(Cl)c1 | inactive: -11.3% |
| CCC1=CC2Cc3nc4ccc(Cl)cc4c(N)c3C(C1)C2 (configuration not stated) | inactive: 3.2% |
| O=P1(Nc2ccccn2)COc2ccccc2OC1 | inactive: -7% |
| CCOP(=O)(NC(=NC(C)c1ccccc1)NC(C)c1ccccc1)OCC (configuration not stated) | inactive: -1.7% |
| Clc1n[nH]nc1-c1nn[nH][15n]1 | inactive: -14.8% |
| O=P1(N(CCCl)CCCl)NCCC(C(F)(F)F)O1 (configuration not stated) | inactive: -7% |
| CC(C)(C)C(=O)NC(Sc1ncccn1)C(Cl)(Cl)Cl (configuration not stated) | inactive: -2.1% |
| COc1ccccc1CNC(=O)COC(=O)C(O)(c1ccccc1)c1ccccc1 | inactive: -1% |
| CC1(CBr)Cn2c(nc3ccccc3c2=O)S1 (configuration not stated) | inactive: -7.7% |
| CN(C(=O)Cc1ccc(Cl)c(Cl)c1)[C@@H]1CCCC[C@H]1N1CCCC1 | inactive: 2.1% |
| CC(C)/C=N\N=C(\N)N[N+](=O)[O-] | inactive: -3.9% |
